Earlier results on one compound are cited in article PMC7218169 (Frontiers in Immunology, 2020).

This series relates to HIV-1. Conditions: ACTG 5315, 3 RMD doses (5 mg/m^2 BSA) every two weeks, chronically suppressed individuals; cited from earlier work.

In the case of `C/C=C1\NC(=O)[C@H]2CSSCC/C=C/[C@H](CC(=O)N[C@H](C(C)C)C(=O)N2)OC(=O)[C@H](C(C)C)NC1=O` [RMD, Romidepsin], the “Changes in viral transcription” value is on record as “did not show changes in viral transcription”.
